Molecules are shown by their SMILES. Where “and” joins values, the source holds several entries; their conditions need not be identical. Equal values may be shown once. This is a selection; strong and weak results do not stand in their true shares. Some results for these compounds are left out of this collection, so the calls shown say nothing about other tests. Results filed as inconclusive are left out. Calls of active or inactive are those of the source. The call rests on the fitted dose curve; in most records, active means well fitted inhibition curve with a large enough effect; inconclusive means small, poorly fitted or top-dose-only effect, or effect the other way; inactive means flat fitted curve, though single readings scatter.
On the % scale 0 is the no-effect control and ±100 the full control effect.

The assay is described as follows: Nrf2 qHTS screen for inhibitors. Further: nearly all actives have a fitted effect of over 60% in size. The conditions noted are these: A549 ARE-Fluc reporter, luciferase luminescence, 18-24 h; at 46 µM (top of the series). Background: Quantitative high-throughput screening tests each substance at several concentrations.
Consider `O=C(OC1CN2CCC1CC2)C(CO)(c1ccccc1)c1ccccc1` (stereo not drawn), for which the activity change, negative = inhibition was inactive: -4.1%.
For the compound `COc1cccc(C(=O)NCC2(N3CCOCC3)CCCCC2)c1`, the activity change, negative = inhibition is inactive: 13.3%.
Turning to `CC(C)COc1ccc(C(=O)NCC2(N(C)C)CCCCC2)cc1`, the activity change, negative = inhibition is inactive: 6.32%.
Regarding `COc1ccc(Br)c(C(=O)NCC2(N3CCCCC3)CCCCC2)c1`, the activity change, negative = inhibition is inactive: -5.52%.
Turning to `Cc1cccc(C(=O)NCC2(N(C)C)CCCCC2)c1`, the activity change, negative = inhibition is inactive: 2.79%.
In the case of `COc1cc(C(=O)NCC2(N(C)C)CCCCC2)cc(OC)c1OC` it was inactive: 18.5%; in that of `O=C(OCCN1CCCC1)C(O)(c1ccccc1)c1ccccc1`, inactive: -0.283%; in that of `CC(C)Oc1ccc(C(=O)NCC2(N(C)C)CCCCC2)cc1`, inactive: 7.68% and inactive: -5.36%.
On to `COc1cc(C(=O)NCC2(N(C)C)CCCCC2)c([N+](=O)[O-])cc1OC`, for which the activity change, negative = inhibition is inactive: 0.564%.
On to `COc1ccc(C(=O)NCC2(N(C)C)CCCCC2)cc1Cl`, for which the activity change, negative = inhibition was inactive: 11.5%.
In the case of `COc1ccc(Cl)cc1C(=O)NCC1(N(C)C)CCCCC1`, the activity change, negative = inhibition was inactive: 0.576%.
The value for `COc1cccc(C(=O)NCC2(N3CCCCC3)CCCCC2)c1` was inactive: 3.05%.
In the case of `O=C(NCC1(N2CCCCC2)CCCCC1)c1cccc(Cl)c1` it was inactive: -1.78%; in that of `CN(C)C1CCCC1OC(=O)C(O)(c1ccccc1)c1ccccc1` (stereo not drawn), inactive: 7.6%.
As to `CN(C)c1ccc(C(=O)NCC2(N(C)C)CCCCC2)cc1`, the activity change, negative = inhibition was inactive: 0.744%.
The value for `CN(C)C1(CNC(=O)c2ccccc2[N+](=O)[O-])CCCCC1` was inactive: 14.6%; that for `Cc1ccccc1C(=O)NCC1(N2CCCCC2)CCCCC1` was inactive: 19.3%.
With `CCCCOc1ccccc1C(=O)NCC1(N(C)C)CCCCC1`, the activity change, negative = inhibition was inactive: -0.461%.
With `O=C(NCC1(N2CCCCC2)CCCCC1)c1cc(F)c(F)cc1Cl`, the activity change, negative = inhibition is inactive: 2.99%.
The value for `C=CCN1CCN(CCOC(=O)C(O)(c2ccccc2)c2ccccc2)CC1` was inactive: 10.3%; that for `O=C(NCC1(N2CCCCC2)CCCCC1)c1cccc(Br)c1` was inactive: -11%.
In the case of `Cc1cc(C(=O)NCC2(N3CCCCC3)CCCCC2)ccc1[N+](=O)[O-]` it was inactive: 16.1%; in that of `CCN1CCCC(OC(=O)C2(O)c3ccccc3C=Cc3ccccc32)C1` (stereo not drawn), inactive: 2.17%; in that of `CCOc1cccc(C(=O)NCC2(N(C)C)CCCCC2)c1`, inactive: 14.2%.
The value for `COc1ccc(C(=O)NCC2(N(C)C)CCCCC2)cc1` was inactive: 10%; that for `O=C(NCC1(N2CCCCC2)CCCCC1)c1cc([N+](=O)[O-])ccc1Cl` was inactive: 14.7%; that for `CN1[C@@H]2CC[C@H]1CC(OC(=O)C(O)(c1ccccc1)c1ccccc1)C2` (stereo partly drawn) was inactive: -8.69%.
For the compound `CC(C)N1C(=O)CC2(CCN(CCOC(=O)C(O)(c3ccccc3)c3ccccc3)CC2)C1=O`, the activity change, negative = inhibition was inactive: 19.6%.
In the case of `COc1cc(SC)ccc1C(=O)NCC1(N(C)C)CCCCC1` it was inactive: 22.5%; in that of `CCN(CC)CC(C)C(C)OC(=O)C(O)(c1ccccc1)c1ccccc1` (stereo not drawn), inactive: 3.54%.
Take `CN(C)C1(CNC(=O)c2cccc(Cl)c2)CCCCC1`: the activity change, negative = inhibition was inactive: 5.35%.
Turning to `CN(C)C1(CNC(=O)c2ccccc2F)CCCCC1`, the activity change, negative = inhibition was inactive: -0.928%.
Consider `Cc1ccc(C(=O)NCC2(N3CCCCC3)CCCCC2)cc1`, for which the activity change, negative = inhibition was inactive: 9.22%.

Values taken from PubChem BioAssay AID504444 (National Center for Advancing Translational Sciences (NCATS), 2011).
